Results taken from patent US4699928A, “Fluoroallylamine derivatives” (Merrell Dow Pharmaceuticals Inc., priority 1986, dated 1987).

How the values were obtained:
MAO-B = conditions: cited from earlier work
MAO = assay: Inhibition of MAO in vitro, partially purified rat brain mitochondria, 14C p-tyramine substrate; type: biochemical; conditions: tested as hydrochloride salt
From the text: Inhibition of MAO--In vitro testing
(A) The ability of a compound of Formula I to inhibit MAO can be determined in vitro by the method of A. Christmas et al., Br. J. Pharmacol., 45, 490 (1972) in partially purified mitochondria from rat brain using ^14 C p-tyramine as the substrate. The MAO inhibitory activity of a compound is expressed as the "IC50 " value, which is the molar concentration required to produce 50% inhibition of the enzyme.

MAO-A and MAO-B = conditions: lower versus higher dosages; cited from earlier work

Row | SMILES | preferential inhibition of MAO-B (MAO-B) | IC50 (MAO) [µM] | dose-dependence of selectivity (MAO-A and MAO-B)
1 | C#CCN(C)[C@H](C)Cc1ccccc1 [L-deprenyl, reference compound] | MAO-B is preferentially inhibited | 0.1 | selective inhibitors at lower dosages, but are not selective inhibitors at higher dosages
2 | C#CCN(C)CCCOc1ccc(Cl)cc1Cl [clorgyline, reference compound] |  |  | selective inhibitors at lower dosages, but are not selective inhibitors at higher dosages
